Measured values reported in patent US20260384412A1, “BENZYL OR THIENYLMETHYLENE-SUBSTITUTED AMINOQUINAZOLINE DERIVATIVE AND USE THEREOF AS SOS1 DEGRADATION AGENT” (published 2026).

By UniProt entry, the sequences of proteins in these tests, tags left out. Where a name states a change or a piece, a line headed by the entry shows the natural chain unless it says otherwise.
UniProt Q07889, whole entry: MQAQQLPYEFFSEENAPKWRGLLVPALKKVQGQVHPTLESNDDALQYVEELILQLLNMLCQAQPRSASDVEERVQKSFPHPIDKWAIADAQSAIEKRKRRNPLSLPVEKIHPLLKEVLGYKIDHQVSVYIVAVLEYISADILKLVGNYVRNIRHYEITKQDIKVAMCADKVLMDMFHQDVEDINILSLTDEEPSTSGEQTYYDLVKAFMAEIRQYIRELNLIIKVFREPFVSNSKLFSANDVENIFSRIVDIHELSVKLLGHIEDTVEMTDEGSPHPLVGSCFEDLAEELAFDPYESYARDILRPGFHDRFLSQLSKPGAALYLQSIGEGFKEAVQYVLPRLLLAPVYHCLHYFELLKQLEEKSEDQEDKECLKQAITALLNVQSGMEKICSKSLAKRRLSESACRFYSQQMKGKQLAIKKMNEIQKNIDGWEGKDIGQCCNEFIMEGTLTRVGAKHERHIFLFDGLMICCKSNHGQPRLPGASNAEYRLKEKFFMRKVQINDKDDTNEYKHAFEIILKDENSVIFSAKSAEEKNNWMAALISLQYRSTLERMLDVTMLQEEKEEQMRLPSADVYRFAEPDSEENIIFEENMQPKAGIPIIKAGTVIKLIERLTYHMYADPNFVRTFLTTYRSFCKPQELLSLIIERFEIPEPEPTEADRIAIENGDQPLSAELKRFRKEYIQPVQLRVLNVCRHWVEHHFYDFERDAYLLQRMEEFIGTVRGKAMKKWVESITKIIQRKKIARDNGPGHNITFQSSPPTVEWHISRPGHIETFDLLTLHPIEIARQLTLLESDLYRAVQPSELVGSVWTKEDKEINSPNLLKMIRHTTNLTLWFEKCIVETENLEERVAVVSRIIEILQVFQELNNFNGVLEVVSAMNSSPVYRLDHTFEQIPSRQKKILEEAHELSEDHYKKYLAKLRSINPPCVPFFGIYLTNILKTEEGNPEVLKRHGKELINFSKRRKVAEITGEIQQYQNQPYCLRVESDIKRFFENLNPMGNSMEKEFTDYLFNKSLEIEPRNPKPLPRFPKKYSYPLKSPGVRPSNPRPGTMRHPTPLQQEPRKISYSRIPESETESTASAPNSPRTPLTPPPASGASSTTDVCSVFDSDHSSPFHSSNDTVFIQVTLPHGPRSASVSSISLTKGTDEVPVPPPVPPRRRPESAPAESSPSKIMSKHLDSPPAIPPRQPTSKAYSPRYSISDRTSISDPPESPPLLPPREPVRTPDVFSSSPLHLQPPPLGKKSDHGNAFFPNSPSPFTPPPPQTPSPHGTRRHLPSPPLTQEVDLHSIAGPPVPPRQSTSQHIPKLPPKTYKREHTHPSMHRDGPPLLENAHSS

Assays:
SOS1 protein = SOS1 protein (Homo sapiens, UniProt Q07889); assay: SOS1 Degradation Assay in NCI-H358 (KRAS G12C) cells, Western blot; conditions: for NCI-H358 (G12C) Dmax: maximum, 24 h; for DC50: read-out: NCI-H358 (G12C) DC50, 24 h
Protocol: The degradation effect on SOS1 by compounds was investigated on KRAS G12C mutant human non-small cell lung cancer cell NCI-H358 (ATCC or Stem Cell Bank, Chinese Academy of Sciences), KRAS G12D mutant human lung cancer cell A-427 (ATCC), KRAS G12V mutant human colorectal adenocarcinoma cell SW-620 (ATCC), and KRAS G13D mutant human colorectal adenocarcinoma epithelial cell DLD-1 (ATCC). The specific procedures were as follows:
0.95 mL of cells were seeded into each well of a 24-well cell culture plate to achieve a cell density of 5×10^5 cells/well; the cell plate was incubated in an incubator at 37 °C with 5% CO2 overnight. Then 50 μL of the compound solution after dilution was added to each of the wells with the corresponding cells, so that the final concentration of the compound was in a range of 0.03-3000 nM. The final concentration of DMSO was 0.25%. After dosing, the cell plate was incubated in an incubator at 37 °C with 5% CO2 for 24 h. The cell culture medium in the 24-well plate was removed, and the plate was washed twice with 1×PBS. 180 μL of RIPA (strong) lysis buffer (Beyotime, P0013B) supplemented with 1 mM phenylmethylsulfonyl fluoride, a protease inhibitor mixture (Beyotime, P1008), and a protease phosphatase inhibitor mixture (Beyotime, P1045) was added to lyse adherent NCI-H358 cells at the bottom of the cell culture plate. After the plate was left to stand on ice for 30 min, the protein lysate in each well was transferred to a 1.5 mL centrifuge tube and centrifuged at 15000 g for 20 min at 4 °C. The cell lysate supernatant after centrifugation was cryopreserved at −80 °C for testing and was used for determining the degradation level of the SOS1 protein by a WB method. The concentration of total protein in the cell lysate supernatant was determined using the BCA protein quantification kit (Tiangen, PA115-02).
The concentration of total protein in the cell lysate was determined by BCA. The total protein was adjusted to 0.5 μg/μL with PBS and 5×SDS-PAGE protein loading buffer (Beyotime, P0015L), incubated in a water bath at 100 °C for 15 min, incubated in an ice bath for 5 min, centrifuged at 14000 g for 1 min at 4 °C, and mixed well as a loading sample for WB. Protein electrophoresis was performed on a precast gel (KeyGEN, KGMG010W15) with a loading volume of 10 μL (total protein: 5 μg) using a Tris-MOPS-SDS running solution (Adamas, P1598253) at a constant voltage of 120 V for 55 min. After the electrophoresis, the protein on the gel strip was transferred to a PVDF membrane at a constant current of 250 mA for 65 min. After the membrane transfer, the membrane was incubated in 1×QuickBlock blocking buffer (Beyotime, P0235) for 30 min at room temperature. After the blocking, the PVDF membrane was incubated with an SOS1 primary antibody (Abcam, ab140621) at 4 °C overnight, washed with a TBST buffer (2.4 g of Tris, 8.8 g of NaCl, 1.5 mL of Tween 20, with pH adjusted to 7.4, with the volume brought to 1 L) for 30 min (10 min/time), incubated with a secondary antibody (Abcam, ab205718) at room temperature for 2 h, washed with a TBST buffer for 30 min (10 min/time), and finally incubated with Clarity Western ECL Substrate (BIO-RAD, 170-5061) for 5 min for luminescence and color development, and a chemiluminescence imaging system (Clinx, ChemiScope 6200 Touch) was used for color development and protein mapping. Gray value analysis of the protein maps was performed using Clinx chemiluminescence analysis software. The gray correction value for each sample was calculated by the formula: gray correction value=(gray value of target protein/gray value of corresponding internal reference)×103. Then degradation rates were calculated by comparison with the corrected gray value of the control group. Then non-linear curve fittings for logarithmic concentration-inhibition rate were performed using GraphPad Prism 8 to yield the DC50 and Dmax values of the compounds.

KRAS-G12C/SOS1 = KRAS-G12C/SOS1 (Homo sapiens, UniProt Q07889); assay: KRAS-G12C/SOS1 Binding Assay (HTRF); conditions: read-out: KRAS G12C:SOS1 IC50, KRAS-G12C with 10 μM GTP, 25 °C 15 min, then on ice 3 h
Protocol: The following method was used to determine the extent of inhibition of KRAS-G12C/SOS1 binding by the preferred compounds of the present disclosure under in vitro conditions. In this method, the competitive inhibition of KRAS-G12C/SOS1 binding by the preferred compounds was assayed by the homogeneous time-resolved fluorescence (HTRF) technology using the KRAS-G12C/SOS1 binding assay kit (Cisbio, 63ADK000CB16PEG).
The experimental procedures were as follows (refer to the kit instructions for details): the compounds of the present disclosure were each firstly dissolved in DMSO at a concentration of 20 mM, and then diluted in an equal gradient with a buffer in the kit, so that the final concentrations of the test compounds in the reaction system were in a range of 10000 nM-0.04 nM, and the final concentration of DMSO was 0.5%, 2 μL of each compound was incubated with 4 μL of 1×Tag1-SOS1 and 4 μL of 1×Tag2-KRAS-G12C (containing 10 μM guanosine triphosphate, GTP) at 25 °C for 15 min. Then 5 μL of 1×Anti-Tag1-Tb3+ and 5 μL of 1× Anti-Tag2-XL665 were added to the reaction system, and the mixture was incubated on ice for 3 h. After the incubation, the fluorescence intensity of each well was measured at the excitation wavelength of 337 nm, the fluorescence intensity of each well was read at the emission wavelengths of 620 nm and 665 nm on a microplate reader En Vision (PerkinElmer, 2105) in an HTRF mode, and the Ratio value was calculated by the formula Ratio=(665 nm/620 nm)×104. The inhibition rates of the compounds at each concentration were calculated by comparing the fluorescence intensity ratio with that of the control group, and then non-linear curve fitting was performed by GraphPad Prism 8 in the logarithmic concentration-inhibition rate to yield the IC50 values of the compounds, as shown in Table 1.

- NCI-H358 (G12C) Dmax (SOS1 protein): B (50≤Dmax (%)<80)
- DC50 (SOS1 protein): 100 to 500 nM
- pIC50 (KRAS-G12C/SOS1): 7.52 to 7.82
Structure (SMILES): CNCc1ccccc1-c1csc([C@@H](C)Nc2nc(C)nc3cc(OC)c([C@H]4CC[C@H](C(=O)N5CCN(CC6CCC7(CC6)CCN(C(=O)c6ccc(C8CCC(=O)NC8=O)cc6)CC7)CC5)CC4)cc23)c1 (some centres unmarked)

- NCI-H358 (G12C) Dmax (SOS1 protein): B (50≤Dmax (%)<80)
- DC50 (SOS1 protein): < 50 nM
- pIC50 (KRAS-G12C/SOS1): 7.00 to 7.30
Structure (SMILES): COc1cc2nc(C)nc(N[C@H](C)c3cccc(C#N)c3C)c2cc1[C@H]1CC[C@H](C(=O)N2CCN(CC3CCC4(CC3)CCN(C(=O)c3ccc(Cl)c(N5CCC(=O)NC5=O)c3)CC4)CC2)CC1

- NCI-H358 (G12C) Dmax (SOS1 protein): B (50≤Dmax (%)<80)
- DC50 (SOS1 protein): 50 to 100 nM
- pIC50 (KRAS-G12C/SOS1): 7.52 to 7.82
Structure (SMILES): CNCc1ccccc1-c1csc([C@@H](C)Nc2nc(C)nc3cc(OC)c([C@H]4CC[C@H](C(=O)N5CCC(CCOCC6CCN(C(=O)c7ccc(Cl)c(N8CCC(=O)NC8=O)c7)CC6)CC5)CC4)cc23)c1

- NCI-H358 (G12C) Dmax (SOS1 protein): A (80≤Dmax (%)≤100)
- DC50 (SOS1 protein): < 50 nM
- pIC50 (KRAS-G12C/SOS1): 7.52 to 7.82
Structure (SMILES): CNCc1ccccc1-c1csc([C@@H](C)Nc2nc(C)nc3cc(OC)c([C@H]4CC[C@H](C(=O)N5CCN(CCCCC6CCN(C(=O)c7ccc(Cl)c(N8CCC(=O)NC8=O)c7)CC6)CC5)CC4)cc23)c1

- NCI-H358 (G12C) Dmax (SOS1 protein): B (50≤Dmax (%)<80)
- DC50 (SOS1 protein): 50 to 100 nM
- pIC50 (KRAS-G12C/SOS1): 7.30 to 7.52
Structure (SMILES): COc1cc2nc(C)nc(N[C@H](C)c3cccc(C(F)F)c3C)c2cc1[C@H]1CC[C@H](C(=O)N2CCN(CC3CCC4(CC3)CCN(C(=O)c3ccc(Cl)c(N5CCC(=O)NC5=O)c3)CC4)CC2)CC1

The remaining lines, values behind:

Structure (SMILES): CNCc1ccccc1-c1csc([C@@H](C)Nc2nc(C)nc3cc(OC)c([C@H]4CC[C@H](C(=O)N5CCC(CCOCC6CCN(c7ccc8c(c7)C(=O)N(C7CCC(=O)NC7=O)C8=O)CC6)CC5)CC4)cc23)c1 (some centres unmarked)
- NCI-H358 (G12C) Dmax (SOS1 protein): A (80≤Dmax (%)≤100)
- DC50 (SOS1 protein): 100 to 500 nM
- pIC50 (KRAS-G12C/SOS1): 6.00 to 7.00

Structure (SMILES): [2H]C([2H])(OCCC1CCN(C(=O)[C@H]2CC[C@H](c3cc4c(N[C@H](C)c5cc(N)cc(C(F)(F)F)c5)nc(C)nc4cc3OC)CC2)CC1)C1CCN(C(=O)c2ccc(Cl)c(N3CCC(=O)NC3=O)c2)CC1
- NCI-H358 (G12C) Dmax (SOS1 protein): A (80≤Dmax (%)≤100)
- DC50 (SOS1 protein): < 50 nM
- pIC50 (KRAS-G12C/SOS1): 7.30 to 7.52

Structure (SMILES): COc1cc2nc(C)nc(N[C@H](C)c3cc(-c4c(Cl)cccc4CN(C)C)cs3)c2cc1[C@H]1CC[C@H](C(=O)N2CCC(OCCCN3CCN(C(=O)c4ccc(Cl)c(N5CCC(=O)NC5=O)c4)CC3)CC2)CC1
- NCI-H358 (G12C) Dmax (SOS1 protein): A (80≤Dmax (%)≤100)
- DC50 (SOS1 protein): < 50 nM
- pIC50 (KRAS-G12C/SOS1): > 7.82

Structure (SMILES): COc1cc2nc(C)nc(N[C@H](C)c3cc(N)cc(C(F)(F)F)c3)c2cc1[C@H]1CC[C@H](C(=O)N2CCN(CCCOC3CCN(C(=O)c4ccc(Cl)c(N5CCC(=O)NC5=O)c4)CC3)CC2)CC1
- NCI-H358 (G12C) Dmax (SOS1 protein): B (50≤Dmax (%)<80)
- DC50 (SOS1 protein): 50 to 100 nM

Structure (SMILES): COc1cc2nc(C)nc(N[C@H](C)c3cc(N)cc(C(F)(F)F)c3)c2cc1[C@H]1CC[C@H](C(=O)N2CCN(CCCC3CCN(c4ccc(Cl)c(N5CCC(=O)NC5=O)c4)CC3)CC2)CC1
- NCI-H358 (G12C) Dmax (SOS1 protein): D (Dmax (%)<30)
- DC50 (SOS1 protein): 1000 to 10000 nM
- pIC50 (KRAS-G12C/SOS1): 7.30 to 7.52

Structure (SMILES): [2H]C([2H])(OCCC1CCN(C(=O)[C@H]2CC[C@H](c3cc4c(N[C@H](C)c5cc(-c6c(Cl)cccc6CN(C)C)cs5)nc(C)nc4cc3OC)CC2)CC1)C1CCN(C(=O)c2ccc(Cl)c(N3CCC(=O)NC3=O)c2)CC1
- NCI-H358 (G12C) Dmax (SOS1 protein): A (80≤Dmax (%)≤100)
- DC50 (SOS1 protein): < 50 nM
- pIC50 (KRAS-G12C/SOS1): 7.30 to 7.52

Structure (SMILES): COc1cc2nc(C)nc(N[C@H](C)c3cc(N)cc(C(F)(F)F)c3)c2cc1[C@H]1CC[C@H](C(=O)N(C)CCCC2CCC3(CC2)CCN(C(=O)c2ccc(Cl)c(N4CCC(=O)NC4=O)c2)CC3)CC1
- NCI-H358 (G12C) Dmax (SOS1 protein): A (80≤Dmax (%)≤100)
- DC50 (SOS1 protein): < 50 nM
- pIC50 (KRAS-G12C/SOS1): 7.00 to 7.30

Structure (SMILES): COc1cc2nc(C)nc(N[C@H](C)c3cc(-c4c(Cl)cccc4CN(C)C)cs3)c2cc1[C@H]1CC[C@H](C(=O)N2CCC(COCCN3CCN(C(=O)c4ccc(Cl)c(N5CCC(=O)NC5=O)c4)CC3)CC2)CC1
- NCI-H358 (G12C) Dmax (SOS1 protein): A (80≤Dmax (%)≤100)
- DC50 (SOS1 protein): < 50 nM
- pIC50 (KRAS-G12C/SOS1): 7.52 to 7.82

pIC50: −log10 of the molar value. One block for each molecule: values may come before it.
